Drawing on ChEMBL document CHEMBL5500368, “Discovery of novel diaryl substituted isoquinolin-1(2H)-one derivatives as hypoxia-inducible factor-1 signaling inhibitors for the treatment of rheumatoid arthritis” (Eur J Med Chem, 2024), this text covers CC50 for 1 molecule.

Each structure is given as a SMILES string.

The series is described as follows: Cytotoxicity against human MH7A cells.

As for `O=c1c2ccc(-c3ccoc3)cc2ccn1CCc1ccccc1`, the half-maximal cytotoxic concentration (CC50) was over 50 µM.
